Test system: insecticide-resistant population of redlegged earth mite (H. destructor; RLEM)
Settings: P < 0.05 level

## Cc1nn(C)c(Oc2ccccc2)c1C=NOCc1ccc(C(=O)OC(C)(C)C)cc1 [Fenpyroximate]
  difference between insecticide-susceptible and resistant populations in response (in words): no significant differences

— patent US20260262641A1 (priority 2023, published 2026)
